Screens from PubChem BioAssay.
Shown are actives, neighbours in structure and some others; about 1.2% of the full set was active somewhere.
Yeast UUG start = modulators of yeast start codon fidelity, primary screen, whole organism, S. cerevisiae, single point, plate reader; S. cerevisiae UUG-firefly luciferase reporter, luminescence/redox ratio; activity score, % at 18.7 µM; actives 0.13% (n = 350,000); AID 602363, 2012;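 active = replicate mean at a twofold rise or more, about +100% in these data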;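 also: firefly luciferase made from a UUG start codon reports start codon fidelity; reporter light over untreated wells divided by growth signal over untreated wells; some hits fall short of that in this replicate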
Rce1 inh = yeast Rce1p protease inhibitors, primary screen, biochemical, fluorescence, cell-free homogeneous; CAAX prenyl protease 2 (Saccharomyces cerevisiae (strain ATCC 204508 / S288c)), Q03530; yeast membranes, quenched prenylated peptide cleavage fluorescence; calls only; hit rate 0.27% among 290,000; AID 2563, 2010;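 active = fall in fluorescence gain of 50% or more versus controls, with final raw signal at or below 3038400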;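 also: plate controls were neutral control wells for no effect and wells lacking membranes for full effect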
Arrestin-AP2 inh = inhibitors of beta-arrestin/AP2 binding, primary screen, biochemical, GPCR trafficking, flow cytometry; beta-arrestin 1 C-terminal peptide binding to AP2 beta2-adaptin appendage (human); FITC-arrestin peptide / GST-AP2 beads; AP2 beta2 appendage carries R879A mutation; inhibition, % at 10 µM; hit rate 0.31% among 340,000;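 active = inhibition above a set limit, near 3 SD of compounds lacking own fluorescence, cut at about 54% in these data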;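 also: plate controls were DMSO wells for no effect and 5 µM unlabelled arrestin peptide for full effect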
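Measured by: flow cytometry, FL1 (488/535 nm); Material: AP2 appendage R879A on GSH beads; Evaluation: percent response; Timing: pre-incubation 12 min, peptide binding 1 h, room temperature; Also added: 50 nM FITC-arrestin peptide; Medium: PBS with 0.05% Tween 20 and 0.1% BSA.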
Pemphigus Ab inh = inhibitors of pemphigus antibody binding to DSG3, primary screen, biochemical, bead-based, flow cytometry, scFv-GFP | Desmoglein-3 (Homo sapiens), P32926 | DSG3-coupled beads, scFv-anti-DSG3-GFP binding; hits give low values | binding (percent of control), % at 10 µM | hit rate 0.48% among 310,000 | AID 588358, 2011;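 active = binding more than 3 SD below its plate's average and above zero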;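 also: hits lower antibody fragment binding to DSG3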
Tb MetRS inh = T. brucei MetRS inhibitors, primary screen, biochemical, luminescence. hit rate 0.4% among 360,000. inhibition, % at 11.9 µM. AID 624268, 2012. purified T. brucei MetRS, ATP depletion, Kinase-Glo luminescence. methionyl-tRNA synthetase (Trypanosoma brucei brucei);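 active = inhibition above a per-plate cutoff of the control wells' mean inhibition plus 3 SD, cut at about 5.5% in these data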;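 also: 0% = DMSO wells median and 100% = median of wells with control inhibitor compound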
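Assay system: T. brucei methionyl-tRNA synthetase, purified | Medium: HEPES buffer with MgCl2, KCl, DTT, spermine, BSA, pyrophosphatase | Compound: 11.9 µM single point | Incubation: 15 min enzyme-compound preincubation, 2 h reaction, 10 min detection, 25 °C | Measured by: Kinase-Glo luciferase luminescence reporting remaining unconsumed ATP | Measure: % inhibition normalized to control-well medians | Replication: Singlicate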
Arr-AP2 CP1 = inhibitors of arrestin peptide binding to AP2, confirmation, biochemical, cherry pick 1, flow cytometry beads | shares compounds with Arrestin-AP2 inh | inhibition, % at 10 µM | GST-AP2 beads, FITC arrestin peptide binding; GST-fused beta2-adaptin appendage, R879A mutant | hit rate 2% among 1,300;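 active = inhibition above a set limit, roughly 3 SD of non-fluorescent compound noise, cut at about 38% in these data; inactive = inhibition at or below that limit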;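 also: loss of bead fluorescence from 50 nM FITC arrestin peptide bound to appendage; 0% = negative control wells and 100% = excess unlabelled arrestin peptide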
GST GSH counter = GST-fluorescein capture on glutathione beads, confirmation, artefact control for arrestin-AP2 inhibitor project, biochemical, cherry pick 1, flow cytometry | hit rate 2% among 1,300 | GST-fluorescein binding to GSH beads, fluorescence, counter-screen | inhibition, % at 10 µM | shares compounds with Arrestin-AP2 inh | AID 588338, 2011;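 active = inhibition above 50%, about 3 SD of the inhibition seen with non-fluorescent compounds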;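 also: fluorescein maleimide labelled GST captured on 4 micron glutathione beads; higher means more loss of bead fluorescence from quenching or blocked binding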
The depositor's hits bear a star; i = inactive; x = no result.

SMILES	Yeast UUG start	Rce1 inh	Arrestin-AP2 inh	Pemphigus Ab inh	Tb MetRS inh	Arr-AP2 CP1	GST GSH counter
CN(C)CC(=O)N1CCCCN2[C@H](C1)[C@H](c1ccc(-c3ccccc3)cc1)[C@@H]2CO	-4.3	x	x	x	x	x	x
C[C@@H]1CCCCO[C@H](CN(C)C)[C@@H](C)CN([C@H](C)CO)C(=O)c2cc(NC(=O)Nc3ccc4c(c3)OCO4)ccc2O1	14.0	x	x	x	x	x	x
Cc1ccc(-c2nnc(SCc3ccccc3F)o2)cc1	x	i	2.4	98.7	-1.7	x	x
COc1ccc(-c2nnc(SCc3ccccc3F)o2)cc1OC	-14.2	i	84.3*	100.0	0.1	22.3	x
Cc1ccc(CN(C(=O)c2ccccc2[N+](=O)[O-])C2CCS(=O)(=O)C2)o1 (stereo not given)	-36.1	i	34.2	98.8	-0.9	x	x
Cc1ccc(CN(C(=O)c2ccccc2C)C2CCS(=O)(=O)C2)o1 (stereo not given)	-10.1	i	56.1*	x	-0.3	3.5	6.9
CC(C)C(=O)OCC(=O)Nc1ccc(N=Nc2ccccc2)cc1	-6.2	i	55.9*	93.1	-1.1	-4.4	-4.2
O=c1[nH]c2cc(NCCO)c([N+](=O)[O-])cc2[nH]1	x	i	69.8*	99.2	-0.6	0.8	2.3
COCCNc1cc(N)c([N+](=O)[O-])cc1[N+](=O)[O-]	x	i	-14.7	101.4	0.0	x	x
CCNc1ccc2noc3c2c1C(=O)c1ccccc1-3	x	i	62.9*	30.5*	-0.9	33.6	91.0*
CCCCn1c(N)c(N(CCOC)C(=O)COC(=O)COc2ccccc2C#N)c(=O)[nH]c1=O	-5.9	i	56.5*	88.9	-0.5	18.8	3.4
CNC[C@@H]1Oc2c(NC(=O)c3ccncc3)cccc2C(=O)N([C@H](C)CO)C[C@H]1C	-4.9	x	x	x	x	x	x
COc1ccccc1C(O)P(=O)(OC1CCCCC1)OC1CCCCC1 (stereo not given)	x	i	54.7*	x	-0.3	-8.7	-3.9
CN(C)S(=O)(=O)c1ccc(NC(=O)C2CCCN(C(=O)c3ccc(Cl)cc3)C2)cc1 (stereo not given)	x	i	56.0*	118.9	-1.2	-1.7	-4.8
O=C(Nc1ccc(S(=O)(=O)N2CCCCC2)cc1)C1CCCN(C(=O)c2ccc(Cl)cc2)C1 (stereo not given)	x	i	4.4	100.7	-0.3	x	x
O=C(C[C@@H]1CC[C@H]2[C@@H](COC[C@@H](O)CN2C(=O)Nc2ccccc2)O1)NC1Cc2ccccc2C1	13.0	x	x	x	x	x	x
CC(=O)Nc1cccc(NC(=O)C2CC(=O)N(C3CCCCC3)C2)c1 (stereo not given)	5.3	i	60.9*	108.4	-0.7	9.2	-6.3
CC(=O)c1cccc(NC(=O)C2CC(=O)N(C3CCCC3)C2)c1 (stereo not given)	-6.6	x	34.3	120.8	0.3	x	x
CCOc1ccc2nc(NC(=O)CS(=O)(=O)c3ccc(C)cc3)sc2c1	-19.3	i	10.2	116.2	-1.7	x	x
CCOc1ccc2nc(NC(=O)CS(=O)(=O)c3ccccc3)sc2c1	-16.2	i	80.9*	95.9	0.1	4.4	-2.0
Cc1noc(C)c1S(=O)(=O)Nc1ccc2c(c1)C(=O)N([C@H](C)CO)C[C@@H](C)[C@@H](CN(C)C)OCCCC[C@@H](C)O2	-6.7	x	x	x	x	x	x
O=C(NC1=NCCS1)c1ccc(Cl)c(S(=O)(=O)N2CCCC2)c1	x	i	44.9	98.0	-0.3	x	x
O=C(NC1=NCCS1)c1ccc(Cl)c(S(=O)(=O)N2CCOCC2)c1	x	i	56.5*	106.9	-0.7	-0.8	-13.5
CCN(CC(=O)Nc1ccc(OC)cc1)C(=O)Cc1cccs1	-17.4	i	55.5*	104.4	-0.2	-2.7	-4.5
C[C@H]1CCCCO[C@@H](CN(C)Cc2ccncc2)[C@@H](C)CN([C@@H](C)CO)C(=O)c2cc(NC(=O)c3ccccc3)ccc2O1	-8.3	x	x	x	x	x	x
COc1ccc(OC)c(NC(=O)c2cc3c(Cl)nc4ccccc4c3s2)c1	x	i	104.4*	95.1	-0.5	-7.3	-11.2
O=C(NCCc1cccnc1)C1CCC(=O)N(Cc2cccc(C(F)(F)F)c2)C1 (stereo not given)	-13.0	i	4.8	x	0.5	x	x
CC(C)Oc1ccc(CCNC(=O)C2CCC(=O)N(Cc3cccc(F)c3)C2)cc1 (stereo not given)	-14.0	x	-4.9	104.1	-0.6	10.8	-1.4
COc1cccc(CN2CC(C(=O)NCCCc3ccc(C)cc3)CCC2=O)c1 (stereo not given)	-4.5	i	1.9	x	-0.5	-8.5	1.5
COc1cccc(CN2CC(C(=O)NCCCc3ccncc3)CCC2=O)c1 (stereo not given)	-4.1	i	-9.1	101.8	-0.4	x	x
O=C(NCCc1ccccc1)C1CCC(=O)N(Cc2cccc(C(F)(F)F)c2)C1 (stereo not given)	8.9	i	0.8	115.6	-0.3	-4.7	0.8
C[C@@H]1CN([C@H](C)CO)C(=O)Cc2cc(NC(=O)Nc3ccc4c(c3)OCO4)ccc2O[C@H]1CN(C)Cc1ccncc1	-7.3	x	x	x	x	x	x
Clc1ccc(OCc2nnnn2-c2ccccc2)cc1	x	i	73.2*	130.9	-1.1	4.6	-4.8
COc1ccc(NC(=O)Nc2ccc3c(c2)CC(=O)N([C@@H](C)CO)C[C@@H](C)[C@@H](CN(C)S(C)(=O)=O)O3)cc1	-4.6	x	x	x	x	x	x
O=C(Nc1ccc(Br)cc1)Nc1cnccn1	-8.7	i	14.7	118.5	-0.1	-5.3	x
O=C(Nc1ccc(Br)cc1)c1cnccn1	-8.8	i	9.9	100.1	0.1	x	x

Compounds from the list above with fluorine:
SMILES	Yeast UUG start	Rce1 inh	Arrestin-AP2 inh	Pemphigus Ab inh	Tb MetRS inh	Arr-AP2 CP1	GST GSH counter
Cc1ccc(-c2nnc(SCc3ccccc3F)o2)cc1	x	i	2.4	98.7	-1.7	x	x
COc1ccc(-c2nnc(SCc3ccccc3F)o2)cc1OC	-14.2	i	84.3*	100.0	0.1	22.3	x
O=C(NCCc1cccnc1)C1CCC(=O)N(Cc2cccc(C(F)(F)F)c2)C1 (stereo not given)	-13.0	i	4.8	x	0.5	x	x
CC(C)Oc1ccc(CCNC(=O)C2CCC(=O)N(Cc3cccc(F)c3)C2)cc1 (stereo not given)	-14.0	x	-4.9	104.1	-0.6	10.8	-1.4
O=C(NCCc1ccccc1)C1CCC(=O)N(Cc2cccc(C(F)(F)F)c2)C1 (stereo not given)	8.9	i	0.8	115.6	-0.3	-4.7	0.8

Carrying on:
SMILES	Yeast UUG start	Rce1 inh	Arrestin-AP2 inh	Pemphigus Ab inh	Tb MetRS inh	Arr-AP2 CP1	GST GSH counter
O=C(Nc1ccc(F)cc1)c1cnccn1	-20.6	x	x	101.5	-0.3	x	x
O=C(Nc1ccc(F)cc1)Nc1cnccn1	-10.2	i	4.1	99.0	1.8	2.1	-5.1
CC(C)NC(=O)Nc1ccc2c(c1)CC(=O)N([C@H](C)CO)C[C@H](C)[C@@H](CN(C)C(=O)Nc1ccc3c(c1)OCO3)O2	30.8	x	x	x	x	x	x
CCOC(=O)c1c(-c2cccs2)csc1NC(=O)COC(=O)c1c(C)noc1C	-4.6	i	55.2*	99.6	-1.2	3.2	5.1
